Source: ChEMBL document CHEMBL5729346, “2-beta-naphthyl-acetic acid analogs as AKR1C3 inhibitors and methods of using same” (2022)
pIC50: −log10 of the molar value.

Molecular target: T1, Aldo-keto reductase family 1 member C3 (Homo sapiens, UniProt P42330)
T1 sequence (P42330 whole entry): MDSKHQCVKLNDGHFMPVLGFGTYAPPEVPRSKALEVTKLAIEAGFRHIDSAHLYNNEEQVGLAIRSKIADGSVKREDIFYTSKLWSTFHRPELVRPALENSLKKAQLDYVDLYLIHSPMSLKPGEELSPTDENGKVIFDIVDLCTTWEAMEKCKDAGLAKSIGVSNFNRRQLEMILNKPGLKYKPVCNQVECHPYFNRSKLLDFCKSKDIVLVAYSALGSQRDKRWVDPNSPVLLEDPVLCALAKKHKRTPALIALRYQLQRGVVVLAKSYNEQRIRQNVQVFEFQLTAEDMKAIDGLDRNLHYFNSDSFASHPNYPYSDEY
Test: S-Tetralol Oxidation Assay: the inhibitory potency of the individual compounds against the AKR1C isoforms was determined by monitoring the NADP+ dependent oxidation of S-tetralol catalyzed by the AKR1C enzymes using substrate concentrations at their Km values in the presence and absence of varying concentration of the inhibitors (Adeniji, et al., 2012, J Med Chem 55:2311-2323). Reaction systems (200 μL) contained 100 mM potassium phosphate buffer (pH 7.0), 4% DMSO, 200 μM NADP+, a serial dilution of compounds, S-tetralol, and AKR1C enzymes. […] The concentration of AKR1C1, 1C2, 1C3, and 1C4 was 111, 86, 95, and 552 nM, respectively. Reagents were mixed and incubated at 37° C. for 10 min followed by adding AKR1C enzymes to initiate the reaction. […] To determine the pattern of inhibition, five fixed concentrations of S-tetralol were used and four different concentrations of inhibitor were used and a gobal fit of the equations for COMP, NONCOMP and UNCOMP to the data was applied using Grafit.

COc1ccc2cc([C@@H](C)C(=O)O)ccc2c1
pIC50: 6.74
